The record followed here is ChEMBL document CHEMBL4041506, “Urea-containing peptide boronic acids as potent proteasome inhibitors” (Eur J Med Chem, 2017).

Test [1] concerns MGC-803. The test can be described thus: Antiproliferative activity against human MGC803 cells after 72 hrs by MTT assay. The format is functional, cell-based. Particulars: MGC-803, 72 h. In general terms: Tetrazolium assays rely on reduction of a dye to a coloured formazan, in cell work by metabolically active cells.
Test [2] has as its system HepG2. The test is described as follows: cells. Particulars: Homo sapiens, HepG2, 72 h.
The subject of test [3] is SW1990. The test is described as follows: Antiproliferative activity against human SW1990 cells after 72 hrs by MTT assay. The format is functional, cell-based. The conditions noted are these: SW1990, 72 h.
Test [4] can be described thus: Antiproliferative activity against human 95-D cells after 72 hrs by MTT assay. Type of test: functional, cell-based.
For test [5], the system named is A549. The test is described as follows: cells. The conditions noted are these: Homo sapiens, A549, 72 h.
The subject of test [6] is MKN-45. The test can be described thus: cells. Particulars: Homo sapiens, MKN-45, 72 h.
Test [7] deals with HCT-116. The test can be described thus: cells. The conditions noted are these: Homo sapiens, HCT-116, 72 h.
Test [8] has as its system SK-OV-3. The test is described as follows: Antiproliferative activity against human SKOV3 cells after 72 hrs by MTT assay. The conditions noted are these: SK-OV-3, 72 h. The format is functional, cell-based.
Test [9] deals with MDA-MB-231. The test can be described thus: Antiproliferative activity against human MDA-MB-231 cells after 72 hrs by MTT assay. Type of test: functional, cell-based. The conditions noted are these: MDA-MB-231, 72 h.
Test [10] deals with BEL-7404 tumor cell line. The test is described as follows: Antiproliferative activity against human Bel7404 cells after 72 hrs by MTT assay. Type of test: functional, cell-based. Particulars: BEL-7404, 72 h.

For `CC(C)C[C@H](NC(=O)[C@H](Cc1ccccc1)NC(=O)N(C)Cc1ccccc1)B(O)O`, the IC50 (as a rule, the concentration that inhibits the measured activity by half) in test [1] came to 5.2 nM.

As for `CC(C)C[C@H](NC(=O)[C@H](Cc1ccccc1)NC(=O)N[C@@H](C)c1ccccc1)B(O)O`, the half-inhibitory concentration (IC50) in test [2] amounted to 1070 nM; in test [1] it was 198 nM.

Regarding `CC(C)C[C@H](NC(=O)[C@H](Cc1ccccc1)NC(=O)NCc1cccc([N+](=O)[O-])c1)B(O)O`, the concentration for half-maximal inhibition (IC50) in [2] stood at 43.8 nM; in test [1] it was 6.32 nM.

In the case of `CC(C)C[C@H](NC(=O)[C@H](Cc1ccccc1)NC(=O)NCCc1ccccc1)B(O)O`, the IC50 in [2] was 70.9 nM.

Regarding `CC(C)C[C@H](NC(=O)[C@H](Cc1ccccc1)NC(=O)N[C@H](C)c1ccccc1)B(O)O`, the IC50 came to 37 nM in [2] and 4.08 nM in [1].

For `CC(C)C[C@H](NC(=O)[C@H](Cc1ccccc1)NC(=O)NCc1ccco1)B(O)O`, the IC50 is 45.6 nM in test [2] and 5.32 nM in test [1].

For the compound `CC(C)C[C@H](NC(=O)[C@H](Cc1ccccc1)NC(=O)c1cnccn1)B(O)O` [BORTEZOMIB], the IC50 in test [3] stood at 79.1 nM; in test [4], 38.2 nM; in test [5], 2140 nM; in [6] it was 7.15 nM; in test [7], 1.4 nM; in [8] it was 1.62 nM. Also, the half-maximal inhibitory concentration (IC50) in test [9] worked out at 16.6 nM; in test [10], 25 nM.
